Test results published in PubChem BioAssay AID1656 (Sanford-Burnham Center for Chemical Genomics, 2009).
The list shows a part of the results, in another mix than the full data. The source made the active and inactive calls.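 How the source made its calls: active means lipid droplet intensity inhibited by at least 50%, with more than 500 cells counted; inconclusive means wells with under 300 cells, treated as cytotoxic; inactive means the rest.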

Test: inhibitors of hepatocyte lipid droplet formation, primary screen, imaging, high-throughput imaging, BODIPY stain (AID 1656)
Details: AML12 mouse hepatocytes, oleate lipid droplets, at 6.5 µM, hits give high values

| Structure (SMILES) | inhibition |
| --- | --- |
| Cc1ccc(NP(C)(=O)Oc2ccccc2)c(C)c1 (stereo not given) | inactive: -8.8% |
| CC(C)c1ccc(OP(=O)(Nc2ccccn2)Oc2ccccc2F)cc1 (stereo not given) | inactive: -9.6% |
| COc1ccccc1OP(C)(=O)Nc1cc(Cl)ccc1C (stereo not given) | inactive: -5.3% |
| CC(C)NC(=O)NP(=O)(Oc1ccccc1)Oc1ccccc1 | inactive: 8.5% |
| COc1ccc(OP(C)(=O)Nc2cccc(F)c2)cc1 (stereo not given) | inactive: -8.3% |
| O=[N+]([O-])c1cc([N+](=O)[O-])c(-c2ccn[nH]2)s1 | inactive: -31.5% |
| Cc1cc(C)cc(OP(C)(N)=O)c1 (stereo not given) | inactive: -1% |
| O=[As](O)(c1ccc(O)cc1)c1ccccc1O | inactive: -10.2% |
| C[As](=O)(O)c1cccc(C(=O)O)c1 | inactive: -0.4% |
| Cc1ccc(OP(=O)(Nc2ccc([N+](=O)[O-])cn2)Oc2ccc(C)cc2)cc1 | inactive: 6% |
| CC(C)(C)c1ccc(OP(C)(=O)Nc2ccc(SC(F)(F)F)cc2)cc1 (stereo not given) | inactive: -20.8% |
| Cc1cccc(C)c1OP(C)(N)=O (stereo not given) | inactive: 23.4% |
| O=[N+]([O-])c1ccc2c(c1)C=Nc1ccccc1O2 | inactive: 8.1% |
| Cc1ccc2nc3c(c(C)c2c1)CC(C(Cl)Cl)S3 (stereo not given) | inactive: -19.1% |
| NC(=O)Nc1ccc([As](=O)(O)O)cc1 | inactive: -6.3% |
| CN(C(=O)Cc1ccccc1)[C@@H]1CC[C@]2(CCCO2)C[C@H]1N1CCCC1 | inactive: -24.8% |
| O=[N+]([O-])c1ccc2c(c1)nnn2O | inactive: -2.4% |
| CC1=NCCc2c1[nH]c1ccccc21.O=[N+]([O-])c1cc([N+](=O)[O-])c(O)c([N+](=O)[O-])c1 | inactive: -14.7% |
| CCOP1(=S)c2c(C)nn(CCC#N)c2N=C(c2ccccc2F)N1C (stereo not given) | inactive: 3.5% |
| O=C(O)c1cccc(Nc2c([N+](=O)[O-])cc([N+](=O)[O-])cc2[N+](=O)[O-])c1 | inactive: 12.4% |
| O=P(Nc1nccs1)(Oc1ccccc1)Oc1ccccc1 | inactive: 20.5% |
| O=P(Nc1nccs1)(c1ccccc1)c1nc2ccccc2s1 (stereo not given) | inactive: -4.1% |

| Structure (SMILES) | inhibition |
| --- | --- |
| CS(=O)(=O)c1cc([N+](=O)[O-])c2no[n+]([O-])c2c1 | inactive: 1.6% |
| Nc1ccccc1[As](=O)(O)c1ccccc1 | inactive: 1.4% |
| O=C(O)COc1ccc([As](=O)(O)O)cc1[N+](=O)[O-] | inactive: -0.2% |
| Cc1cc(C)cc(OP(C)(=O)Nc2ccccn2)c1 (stereo not given) | inactive: 1.8% |
| CP(=O)(Nc1cccc(Br)c1)Oc1ccccc1 (stereo not given) | inactive: 0.4% |
| Cc1ccc(NCCc2c([N+](=O)[O-])cc([N+](=O)[O-])cc2[N+](=O)[O-])cc1 | inactive: 0.2% |
| Nc1cccc2c([As](=O)(O)O)cccc12 | inactive: 16.8% |
| Cc1ccc(C)c(NP(C)(=O)Oc2ccccc2)c1 (stereo not given) | inactive: -15.5% |
| CCCOP(=S)(Nc1nc(N)cc(=O)[nH]1)OCCC | inactive: -2.9% |
| CCOP(=O)(Nc1cccc2ccccc12)OCC | inactive: -17.2% |
| O=C(OC1CN2CCC1CC2)c1ccc(Cl)cc1 (stereo not given) | inactive: 11.2% |
| O=[As](O)(O)c1cccnc1 | inactive: -2.5% |
| COc1cc(C(=O)NCC2(N3CCOCC3)CCCCC2)cc(Cl)c1OC(C)C | inactive: -11.2% |
| COc1ccccc1OP(C)(=O)Nc1cccc(Br)c1 (stereo not given) | inactive: -16% |
| CS(=O)(=O)c1ccc(Cl)c(NC(=O)COC(=O)C(O)(c2ccccc2)c2ccccc2)c1 | inactive: -7.1% |
| Cc1cccc(OCC(=O)OC2CN3CCC2CC3)c1 (stereo not given) | inactive: 6.2% |
| O=[As](O)(c1cccc(O)c1)c1cccc(O)c1 | inactive: 5.9% |
| Cc1cc(C)cc(OP(C)(=O)Nc2ccc(C)cc2C)c1 (stereo not given) | inactive: -5.4% |
| CCOC(=O)c1ccc(NP(C)(=O)Oc2cc(C)cc(C)c2)cc1 (stereo not given) | inactive: -12.5% |
| CC(C)/C=N\N=C(\N)N[N+](=O)[O-] | inactive: 17.8% |
| CN(C(=O)Cc1ccc(Cl)c(Cl)c1)[C@@H]1CCCC[C@H]1N1CCCC1 | inactive: -2.1% |
| O=[As](O)(c1ccccc1Br)c1ccccc1Br | inactive: -5% |

| Structure (SMILES) | inhibition |
| --- | --- |
| O=P1(Nc2ccccn2)COc2ccccc2OC1 | inactive: -2.9% |
| CCC1=CC2Cc3nc4ccc(Cl)cc4c(N)c3C(C1)C2 (stereo not given) | inactive: -20.1% |
| O=[N+]([O-])c1cc([N+](=O)[O-])c(-n2nnc3ccccc32)c([N+](=O)[O-])c1 | inactive: 3% |
| CCOP(=O)(NC(=NC(C)c1ccccc1)NC(C)c1ccccc1)OCC (stereo not given) | inactive: -4.4% |
| CCOP(=O)(Nc1ccc(C)cn1)OCC | inactive: -2.7% |
| CC(C)(C)C(=O)NC(Sc1ncccn1)C(Cl)(Cl)Cl (stereo not given) | inactive: -11% |
| CN1CCCCC1COC(=O)C1(O)c2ccccc2CCc2ccccc21 (stereo not given) | inactive: -13.1% |
| O=P1(Nc2ncccn2)COc2ccccc2OC1 | inactive: 4.8% |
| CCCOc1ccc(NP(C)(=O)Oc2ccc(Cl)cc2)cc1 (stereo not given) | inactive: -25.5% |
| CP(=O)(Nc1ccc(SC(F)(F)F)cc1)Oc1ccccc1 (stereo not given) | inactive: -22.5% |
| Nc1cccc([As](=O)(O)c2ccccc2)c1 | inactive: 8.3% |
| Cc1ccc(OCC(=O)OC2CN3CCC2CC3)cc1 (stereo not given) | inactive: 14.5% |
| O=[As](O)(c1cccs1)c1cccs1 | inactive: 28.4% |
| O=P1(Nc2ccc(Br)cn2)COc2ccccc2OC1 | inactive: 2.2% |
| Cc1nn(-c2ccccc2)c2c1P(=O)(N1CCOCC1)N(C)C(c1ccccc1)=N2 (stereo not given) | inactive: -0.2% |
| CC1CCC(C(C)C)C(OP(=O)(Nc2ccccn2)c2ccccc2)C1 (stereo not given) | inactive: 4.3% |
| COc1cc(C2NCCC3(OCCO3)C2(C)C)cc(OC)c1OC.O=[N+]([O-])c1cc([N+](=O)[O-])c(O)c([N+](=O)[O-])c1 (stereo not given) | inactive: -4.5% |
| CN(C)C1(CNC(=O)c2ccc(S(C)(=O)=O)cc2)CCCCC1 | inactive: -1.6% |
| O=[N+]([O-])c1cc([N+](=O)[O-])c(Nc2nnnn2CCO)c([N+](=O)[O-])c1 | inactive: 8.4% |
| CCOC(=O)C(CC)C1=NC(C)(C)Cc2ccccc21.O=[N+]([O-])c1cc([N+](=O)[O-])c(O)c([N+](=O)[O-])c1 (stereo not given) | inactive: -33.1% |
| O=C(/C=C/c1ccccc1)OC1CN2CCC1CC2 (stereo not given) | inactive: 22.1% |
